Laboratory results as given in patent publication US20200317769A1 (published 2020).

The chains behind the UniProt entries cited, without tags or fusion partners.
UniProt P01375, whole entry: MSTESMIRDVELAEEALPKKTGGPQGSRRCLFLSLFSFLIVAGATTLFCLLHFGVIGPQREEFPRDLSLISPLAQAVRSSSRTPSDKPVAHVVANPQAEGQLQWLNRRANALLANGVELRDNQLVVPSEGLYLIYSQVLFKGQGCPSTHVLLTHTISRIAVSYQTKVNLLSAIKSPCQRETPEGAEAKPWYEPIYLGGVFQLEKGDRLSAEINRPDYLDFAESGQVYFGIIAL

Molecular target: non-cleavable transmembrane form of human TNF-alpha on CHO cells (mTNF-alpha-CHO) (human, UniProt P01375 1-233)
Experiment: cell-based or functional assay

B1: infliximab (antibody, V domains shown)
VH: EVKLEESGGGLVQPGGSMKLSCVASGFIFSNHWMNWVRQSPEKGLEWVAEIRSKSINSATHYAESVKGRFTISRDDSKSAVYLQMTDLRTEDTGVYYCSRNYYGSTYDYWGQGTTLTVSS
VL: DILLTQSPAILSVSPGERVSFSCRASQFVGSSIHWYQQRTNGSPRLLIKYASESMSGIPSRFSGSGSGTDFTLSINTVESEDIADYYCQQSHSWPFTFGSGTNLEVKR
mTNF-alpha neutralisation EC50 (nM), NF-kB/SEAP HEK-293 cellular reporter assay: 3.79 nM
